Experimental data from ChEMBL document CHEMBL5725471, “Tetrahydro-benzodiazepinones” (2018).

By UniProt entry, the sequences of proteins in these tests, tags left out.
UniProt P98170, whole entry: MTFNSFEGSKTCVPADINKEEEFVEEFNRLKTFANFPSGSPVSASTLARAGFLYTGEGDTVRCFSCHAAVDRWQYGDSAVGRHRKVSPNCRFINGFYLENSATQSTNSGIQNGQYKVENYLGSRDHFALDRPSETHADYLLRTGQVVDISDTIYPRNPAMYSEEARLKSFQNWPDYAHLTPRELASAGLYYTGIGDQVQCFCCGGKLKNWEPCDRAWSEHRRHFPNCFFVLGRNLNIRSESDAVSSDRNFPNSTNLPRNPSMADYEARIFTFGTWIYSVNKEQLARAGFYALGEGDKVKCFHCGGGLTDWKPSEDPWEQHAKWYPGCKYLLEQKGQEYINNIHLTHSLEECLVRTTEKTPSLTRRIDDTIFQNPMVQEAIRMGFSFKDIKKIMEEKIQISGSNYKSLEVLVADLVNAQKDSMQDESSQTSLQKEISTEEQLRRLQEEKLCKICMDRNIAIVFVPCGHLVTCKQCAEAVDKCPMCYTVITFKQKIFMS

These molecules were tested against E3 ubiquitin-protein ligase XIAP (Homo sapiens, UniProt P98170).

IC50 [µM] | Compound
> 54.8 | CN[C@@H](C)C(=O)N[C@H]1CN(C(=O)CCC[N+](=O)[O-])c2ccccc2N(Cc2c(OC)ccc3cc(Br)ccc23)C1=O
42.8 | CN[C@@H](C)C(=O)N[C@H]1CN(C(=O)c2ccc(C#N)cc2)c2ccccc2N(Cc2c(OC)ccc3cc(Br)ccc23)C1=O
> 54.8 | CN[C@@H](C)C(=O)N[C@H]1CN(C(=O)c2ccc(C(O)(O)C(F)(F)F)cc2)c2ccccc2N(Cc2c(OC)ccc3cc(Br)ccc23)C1=O
32.8 | CN[C@@H](C)C(=O)N[C@H]1CN(C(=O)c2ccc(Cl)cc2)c2ccccc2N(Cc2c(C)ccc3ccccc23)C1=O
> 54.8 | COc1ccc2cc(Br)ccc2c1CN1C(=O)[C@@H](NC(=O)[C@H](C)N(C)C)CN(C(=O)c2ccc(C(C)=O)cc2)c2ccccc21

Compound | IC50 [µM]
CN[C@@H](C)C(=O)N[C@H]1CN(C(=O)c2ccc(N)cc2)c2ccccc2N(Cc2c(OC)ccc3cc(Br)ccc23)C1=O | 22.1
CN[C@@H](C)C(=O)N[C@H]1CN(C(=O)c2ccc(C(N)=O)cc2)c2ccccc2N(Cc2c(OC)ccc3cc(Br)ccc23)C1=O | 52.7
CN[C@@H](C)C(=O)N[C@H]1CN(C(=O)c2ccc(C(=O)NCC3CCCCC3)cc2)c2ccccc2N(Cc2c(OC)ccc3cc(Br)ccc23)C1=O | > 54.8
CN[C@@H](C)C(=O)N[C@H]1CN(C(=O)CC(C)C)c2ccccc2N(Cc2ccccc2OC)C1=O | > 54.8
